Experimental data as given in ChEMBL document CHEMBL1143603, “Identification and characterization of novel benzil (diphenylethane-1,2-dione) analogues as inhibitors of mammalian carboxylesterases” (J Med Chem, 2005).

Target: T1, Cocaine esterase (Homo sapiens, UniProt O00748)
T1 sequence (O00748 whole entry): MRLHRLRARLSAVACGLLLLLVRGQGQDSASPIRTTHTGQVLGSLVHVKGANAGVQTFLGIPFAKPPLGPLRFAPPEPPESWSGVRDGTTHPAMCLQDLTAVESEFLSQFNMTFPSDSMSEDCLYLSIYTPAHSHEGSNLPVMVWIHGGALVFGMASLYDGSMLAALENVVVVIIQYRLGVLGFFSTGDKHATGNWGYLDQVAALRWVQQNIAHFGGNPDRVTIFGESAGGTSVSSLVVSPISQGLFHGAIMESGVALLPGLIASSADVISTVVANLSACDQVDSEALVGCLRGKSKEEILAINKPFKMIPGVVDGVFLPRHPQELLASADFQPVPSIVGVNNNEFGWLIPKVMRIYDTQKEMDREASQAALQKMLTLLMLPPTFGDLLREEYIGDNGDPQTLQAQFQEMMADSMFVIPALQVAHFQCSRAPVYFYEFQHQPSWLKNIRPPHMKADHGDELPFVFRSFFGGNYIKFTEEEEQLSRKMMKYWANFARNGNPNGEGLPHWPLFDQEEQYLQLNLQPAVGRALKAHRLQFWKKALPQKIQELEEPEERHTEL
Assay: Inhibition constant against human intestinal carboxylesterase 2 (hiCE) using nitrophenyl acetate (o-NPA) as substrate

In the case of `CC(=O)C(=O)c1ccccc1`, the Ki is reported as 1840 nM.
